# Sampled rows, rich in hits. Any-hit rate of the full collection: about 1.5%.
# Pemphigus Ab inh – human desmoglein-3 autoantibody binding inhibition; P32926; DSG3-coupled beads, scFv-anti-DSG3-GFP binding, flow cytometry; hits give low values; binding (percent of control), % at 10 µM; hit rate 0.48% among 310,000; AID 588358;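 active = binding more than 3 SD below its plate's average and above zero; inconclusive = below that plate limit but binding exactly zero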;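 also: hits lower antibody fragment binding to DSG3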
# MLLE-PAM2 inh – blocks PAM2 peptide binding to the PABP1 MLLE domain; P11940; GST-MLLE / FITC-PAM2 fluorescence polarization; inhibition, % at 20 µM; hit rate 0.36% among 360,000; AID 588489; in the data active = inhibition above about 35%, passing the limit was not always enough
# PABP polyA inh – blocks human PABP binding to poly(A) RNA. P11940. fluorescence polarization. calls only at 35 µM. hit rate 1% among 290,000;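 also: calls also rest on retests at 20 µM and on dose response follow-up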
# eIF4H FP inh – inhibitors of RNA binding by human eIF4H; Q15056; eIF4H fluorescence polarization binding assay; inhibition, % at 35 µM; hit rate 0.94% among 290,000;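 also: calls also rest on retests at 20 µM and on dose response follow-up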
# UUG fidelity – modulators of start codon recognition fidelity in yeast; S. cerevisiae UUG-firefly luciferase reporter, luminescence/redox ratio; AID 602363; 350,000 tested, 0.13% active; activity score, % at 18.7 µM;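 active = replicate mean at a twofold rise or more, about +100% in these data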;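 also: firefly luciferase made from a UUG start codon reports start codon fidelity; reporter light over untreated wells divided by growth signal over untreated wells; some hits fall short of that in this replicate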
# A number is an active result; i = inactive; ? = inconclusive; nt = no result given; + = active, no number. Unless noted, no rule for the calls is given here.
SMILES,Pemphigus Ab inh,MLLE-PAM2 inh,PABP polyA inh,eIF4H FP inh,UUG fidelity
COc1ccc(S(=O)(=O)N(C)C[C@H]2Oc3c(NS(=O)(=O)c4cccs4)cccc3C(=O)N([C@@H](C)CO)C[C@H]2C)cc1,nt,nt,nt,nt,i
Cc1ccc(NC(=O)COC(=O)CSC(=S)N2CCOCC2)cc1,i,i,+,active,i
COc1ccc(CCNC(=O)CN2c3cccc4cccc(c34)S2(=O)=O)cc1,i,i,nt,nt,i
COC(=O)CNC(=O)CN1c2cccc3cccc(c23)S1(=O)=O,i,i,+,?,i
COc1ccccc1N(C(C)=O)C1=C(Cl)C(=O)c2ccccc2C1=O,i,39.4,nt,nt,i
COc1ccccc1N(C(=O)CCl)c1cn(C(C)=O)c2ccccc12,i,i,i,i,i
CCO[C@H]1OC(C(=O)N2CCCC2)=C[C@@H](c2ccc(C(F)(F)F)cc2)[C@@H]1CCCO,nt,nt,nt,nt,i
CN1NC(c2ccccc2)NN(C)C1=O,nt,i,nt,nt,nt
CC1C2C(c3ccccc3)N(C)C(=O)N(C)C2N(C)C(=O)N1C (configuration not stated),nt,i,+,57.2,i
O=C(NCc1ccc(/C=c2\sc3n(c2=O)CCN=3)o1)C(=O)Nc1ccccc1,nt,nt,i,81.6,nt
Cc1ccc(/C=c2/sc3n(c2=O)CCCN=3)o1,i,i,i,i,i
COc1cc(C2CC(=O)Oc3c2c(=O)n(C)c2ccccc32)ccc1O (configuration not stated),i,i,i,64.4,nt
COc1cc(C2CC(=O)Oc3c2c(=O)n(C)c2ccccc32)cc(OC)c1OC (configuration not stated),i,i,i,i,nt
C[C@H](CO)N1C[C@H](C)[C@H](CN(C)C(=O)C2CCCCC2)Oc2ncc(C#CC3CCCCC3)cc2C1=O,nt,nt,nt,nt,i
O=C1NC(=Nc2ccc3ccccc3c2)S/C1=C/c1ccco1,i,i,i,79.8,i
O=C1NC(=Nc2ccc(O)cc2)S/C1=C/c1ccco1,i,i,i,i,i
C[C@@H]1CN([C@@H](C)CO)C(=O)c2cc(NC(=O)Nc3cccc4ccccc34)ccc2O[C@@H](C)CCCCO[C@@H]1CN(C)Cc1ccccc1,nt,nt,nt,nt,i
O=C(NN1C(=O)C2CC=C(Cl)CC2C1=O)c1ccncc1 (configuration not stated),i,i,+,?,i
COc1ccc(NC(=O)c2ccc(N3C(=O)C4CC=C(Cl)CC4C3=O)cc2)cc1 (configuration not stated),i,i,i,i,i
Cc1c(C(=O)O)cccc1-n1c(C)cc(C=O)c1C,i,i,i,72.2,i
CCOc1ccc2nc(SCC(=O)c3cccs3)sc2c1,nt,i,i,i,i
CCOc1ccc2nc(SCC(=O)N3CCCc4ccccc43)sc2c1,i,i,i,i,i
CCOc1ccc2nc(SCC(=O)NC3CCCc4ccccc43)sc2c1 (configuration not stated),63.6,i,i,i,nt
CCOc1ccc2nc(SCC(=O)c3ccc(Cl)s3)sc2c1,i,i,+,54.9,i
C[C@H]1CCCCO[C@H](CN(C)C(=O)Cc2ccccc2)[C@@H](C)CN([C@@H](C)CO)C(=O)c2cc(NC(=O)Nc3ccc4c(c3)OCO4)ccc2O1,nt,nt,nt,nt,i
SMILES,Pemphigus Ab inh,MLLE-PAM2 inh,PABP polyA inh,eIF4H FP inh,UUG fidelity
CC(C)Sc1ccc(C(=O)Nc2ccc(F)cc2F)cn1,68.1,i,i,i,nt
C[C@@H]1CN([C@@H](C)CO)C(=O)c2cccc(NC(=O)c3ccncc3)c2O[C@@H]1CN(C)S(=O)(=O)c1ccc(F)cc1,nt,nt,nt,nt,i
CCCCc1c(C)nc2cc(-c3ccco3)[nH]n2c1=O,i,i,i,i,i
O=C1c2nc3cc(-c4ccco4)[nH]n3c(=O)c2CN1Cc1ccccc1,i,i,+,84.7,i
C=CCn1c(SC(F)F)nc2scc(-c3ccco3)c2c1=O,nt,i,i,i,i
C=CCn1c(SCC(C)=O)nc2scc(-c3ccco3)c2c1=O,nt,i,+,67.1,nt
C=CCn1c(SCC(=O)N2CCCC2)nc2scc(-c3cccs3)c2c1=O,i,i,i,i,i
C=CCn1c(SCC(=O)N2CCOCC2)nc2scc(-c3ccco3)c2c1=O,i,i,+,65.9,i
CCn1c(CSc2nc3ccccc3s2)nnc1SCC(=O)c1ccc(O)c(O)c1,i,i,+,51.6,i
Cc1nc2ccccc2c(=O)n1N(c1ccccc1)c1ccccc1,i,i,i,i,i
C/C(O)=c1/c(=O)nc2cccc3c2=c1c1ccccc1c3=O,i,46.8,?,?,i
Cc1ccc2c(c1)c(=O)c1c3n2CCN(C(=O)CCl)C3CC1 (configuration not stated),i,i,+,?,i
Cc1ccc2c(c1)c1c3n2CCN(C(=O)CN2CCN(C)CC2)C3CCC1 (configuration not stated),i,i,i,i,i
O=C1NNC(c2ccccc2)=N/C1=C\c1ccco1,i,i,+,i,i
O=C1SC(c2ccccc2)=N/C1=C/c1ccco1,i,i,+,50.5,i
Oc1ccccc1/C=N/c1c(-c2ccco2)nc2ccccn12,i,i,?,?,i
COc1ccc(/C=N/c2c(-c3ccco3)nc3ccccn23)cc1OC,nt,47.3,?,?,i
Clc1ccc(/C=N/c2c(-c3ccco3)nc3ccccn23)cc1,i,39.3,+,127.5,i
O=C(c1cccnc1)N1C[C@H]2[C@@H](c3ccccc31)[C@H](CO)N2Cc1ccc2c(c1)OCO2,nt,nt,nt,nt,i
O=C(c1coc(=O)c(Br)c1)N1CCCc2ccccc21,i,i,+,67.0,i
O=C(c1coc(=O)c(Br)c1)N1CCC(C(O)(c2ccccc2)c2ccccc2)CC1,i,i,i,i,nt
CC1(C)CCCN(C(=O)c2coc(=O)c(Br)c2)C1,i,i,+,89.2,i
CCOC(=O)c1sc2nc(C)cc(C)c2c1N,i,i,i,i,i
CCOC(=O)c1sc2nc(CC(C)C)c3c(c2c1N)CCC3,-11.7,i,i,i,nt
Cc1ccc(NC(=O)c2cc(N3C(=O)C=CC3=O)ccc2Cl)cc1C,88.7,i,+,?,i
SMILES,Pemphigus Ab inh,MLLE-PAM2 inh,PABP polyA inh,eIF4H FP inh,UUG fidelity
CC(=O)NCCCC[C@@H]1NC(=O)[C@@H]2C[C@H](C(=O)NCc3ccc(F)cc3)[C@H](c3ccc(O)cc3)N2C1=O,nt,nt,nt,nt,i
CCN(CC)c1ccc(/C=C2\CCC(/C=C(/C#N)C(=O)Nc3ccccc3F)=C2N2CCOCC2)cc1,i,i,nt,nt,nt
CCN(CC)c1ccc(/C=C2\CCC(/C=C(\C#N)C(=O)Nc3ccccc3F)=C2N2CCOCC2)cc1,i,i,i,61.3,i
CCOc1ccc(CC(=O)NNC(=S)NCCc2ccccc2)cc1,66.2,i,i,i,nt
CC(C)NC(=O)N(C)C[C@@H]1OCCCC[C@@H](C)Oc2ccc(NS(=O)(=O)c3ccccc3)cc2C(=O)N([C@@H](C)CO)C[C@H]1C,nt,nt,nt,nt,i
S=C(c1ccc(-c2ccccc2Cl)o1)N1CCOCC1,i,40.5,i,i,i
CO[C@H]1CN(C)C(=O)c2ccc(NC(=O)NC(C)C)cc2OC[C@@H](C)N(Cc2ccc(-c3ccccn3)cc2)C[C@H]1C,nt,nt,nt,nt,i
C[C@@H]1CCCCO[C@H](CN(C)S(=O)(=O)c2ccc(Cl)cc2)[C@H](C)CN([C@H](C)CO)C(=O)c2cc(NC(=O)C3CCCCC3)ccc2O1,nt,nt,nt,nt,i

# Assay outcomes from PubChem.
